The structures appear in SMILES notation. What follows is the remainder of the data, with few or none of the hits. Records with an inconclusive call do not appear. Activity calls are given as the source filed them. The call rests on the fitted dose curve; in most records, active means well fitted inhibition curve with a large enough effect; inconclusive means small, poorly fitted or top-dose-only effect; inactive means flat fitted curve, though single readings scatter.

By UniProt entry, the sequences of proteins in these tests, tags left out.
UniProt P08659, whole entry, looked up: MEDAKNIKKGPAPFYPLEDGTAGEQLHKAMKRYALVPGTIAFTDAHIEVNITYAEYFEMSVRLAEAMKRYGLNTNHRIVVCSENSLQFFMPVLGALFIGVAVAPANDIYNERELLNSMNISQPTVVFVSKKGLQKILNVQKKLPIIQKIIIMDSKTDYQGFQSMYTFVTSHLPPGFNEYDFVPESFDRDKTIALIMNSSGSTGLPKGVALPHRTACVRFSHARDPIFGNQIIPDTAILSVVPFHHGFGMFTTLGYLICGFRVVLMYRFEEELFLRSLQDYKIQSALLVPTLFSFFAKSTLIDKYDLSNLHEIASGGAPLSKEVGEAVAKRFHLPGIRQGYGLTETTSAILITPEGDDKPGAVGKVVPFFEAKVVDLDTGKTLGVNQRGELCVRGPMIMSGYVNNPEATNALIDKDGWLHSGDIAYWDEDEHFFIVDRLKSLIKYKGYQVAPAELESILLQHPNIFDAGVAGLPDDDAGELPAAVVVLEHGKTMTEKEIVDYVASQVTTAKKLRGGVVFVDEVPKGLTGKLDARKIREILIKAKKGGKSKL

The experiment addresses Luciferin 4-monooxygenase (Photinus pyralis) (UniProt P08659). The experiment can be described thus: qHTS profiling assay for firefly luciferase inhibitor/activator using purifed enzyme and Km concentrations of substrates (counterscreen for miR-21 project).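 Further: plate controls were vehicle for no effect and reference inhibitor for full effect; nearly all actives have a fitted effect of over 55% in size.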 To be noted: purified FLuc, luminescence inhibition; at 57.5 µM (top of the series). The text has this: MLPCN Grant: 1 R21 NS059478-01 (miR-21 grant) Assay Provider: NCGC NCGC Assay Overview: Firefly (Photinus pyralis) luciferase is one of the most commonly used transcriptional reporters for a number of reasons. It is considered one of the more dynamically responsive reporters -that is, responsive to changes in reporter transcription - as it requires no post-translational modifications and is enzymatically active directly after protein synthesis (Wood, 1998). Additionally, the half-life of the luciferase protein is short relative to other reporter-gene products (Wood, 1995). […] Although light produced in a bioluminescence reaction is of lower intensity than that produced during fluorescence emission, this is offset by little to no background light inherent to luminescent assays. […] Accumulated intracellular FLuc protein can be measured as an increase in luminescence signal, upon addition of detection reagents (which contain high concentrations of FLuc substrates) commonly used in high-throughput screening. In cell-based reporter gene assays that use FLuc as the reporter gene to quantitate the potential influence of a given compound against the target biology, this apparent increase in luminescence can mistakenly be interpreted as identification of a compound that is active against the target of interest. […]
Regarding `COc1ccc2cc(C(C)C(=O)O)ccc2c1` (configuration not stated), the activity change, negative = inhibition is inactive: -12%.
Take `COc1ccc2cc([C@@H](C)C(=O)O)ccc2c1`: the activity change, negative = inhibition is inactive: 0.0668%.
